Measurements as given in US9034877B2 (Wayne State University, priority 2009, dated 2015).

By UniProt entry, the sequences of proteins in these tests, tags left out. Where a name states a change or a piece, a line headed by the entry shows the natural chain unless it says otherwise.
UniProt P61169, whole entry: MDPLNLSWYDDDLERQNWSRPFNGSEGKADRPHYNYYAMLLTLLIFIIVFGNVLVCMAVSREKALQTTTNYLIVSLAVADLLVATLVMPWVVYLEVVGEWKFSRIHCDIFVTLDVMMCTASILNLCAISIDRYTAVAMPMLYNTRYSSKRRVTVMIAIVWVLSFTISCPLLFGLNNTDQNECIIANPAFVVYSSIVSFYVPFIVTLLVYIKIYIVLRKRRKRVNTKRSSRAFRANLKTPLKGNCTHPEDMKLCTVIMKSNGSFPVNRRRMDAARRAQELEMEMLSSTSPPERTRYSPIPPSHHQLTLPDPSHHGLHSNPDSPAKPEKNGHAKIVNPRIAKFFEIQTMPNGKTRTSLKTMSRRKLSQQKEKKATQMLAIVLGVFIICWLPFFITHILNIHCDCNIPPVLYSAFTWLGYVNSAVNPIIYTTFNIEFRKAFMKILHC

Target: T1, D2L receptor (Rattus norvegicus, UniProt P61169)
T1 construct: expressed in transfected cells
Test: Inhibition of [3H]spiperone binding to cloned D2L receptors expressed in HEK-293 cells
Details: rat D2L in HEK-293 cells, read-out: Ki, D2 receptor

Ki: 15.9 nM
Compound: CCCN(CCN1CCN(c2ccnc3c(O)cccc23)CC1)C1CCc2ccc(O)cc2C1 (stereo not shown) [Compound 19a]
